In US20260168983A1, “YaxAB NANOPORE, NANOPORE SYSTEM COMPRISING SAME AND APPLICATIONS THEREOF” (KOREA RESEARCH INSTITUTE OF BIOSCIENCE AND BIOTECHNOLOGY, priority 2022, published 2026):
Where “and” joins values, the source holds several entries; their conditions need not be identical. Equal values may be shown once.

Assays:
Bcl-xL protein, Q07817 [1] = biological target: Bcl-xL protein, Q07817
Bcl-xL protein, Q07817 [2] = biological target: Bcl-xL protein, Q07817; remark: listed apart in the source
Bcl-xL protein, Q07817 [3] = assay: YaxAB nanopore; Bcl-xL with a mix of four competing peptides at 1:15

Binder: GQVGRQLAIIGDDINR (modifications not checked) [Bak-BH3 peptide (wild-type), Q16611 72-87]
- Open probability (%) of level L2 (Bcl-xL protein, Q07817 [1]): 58%
- current noise I N of the complex (Bcl-xL protein, Q07817 [2]): 95.5 pA and 92.2 pA and 78.9 pA
- signal frequency of the Bcl-xL-peptide complex (Bcl-xL protein, Q07817 [3]): 51%
